Literature values in PubChem BioAssay AID1811.

Tests used:
Assay in all cases: PubChem AID 1811
maltoporin = conditions: PDB complex binding affinities from literature; Kd when reported
sucrose-specific porin = conditions: PDB complex binding affinities from literature; Kd when reported
[1] = molecular target: Pulmonary surfactant-associated protein D; conditions: PDB complex binding affinities from literature; IC50 when reported
[2] = molecular target: deoxyuridine 5'-triphosphate nucleotidohydrolase; conditions: PDB complex binding affinities from literature; Ki when reported
[3] = molecular target: putrescine-binding protein; conditions: PDB complex binding affinities from literature; Kd when reported
[4] = molecular target: heat shock protein 90 alpha; conditions: PDB complex binding affinities from literature; IC50 when reported
[5] = molecular target: Serine/threonine-protein kinase PLK1; conditions: PDB complex binding affinities from literature; IC50 when reported
bruton's tyrosine kinase = conditions: PDB complex binding affinities from literature; Kd when reported
tyrosine kinase btk = conditions: PDB complex binding affinities from literature; Kd when reported
[6] = molecular target: dual adaptor of phosphotyrosine and 3 phosphoinositides; conditions: PDB complex binding affinities from literature; Kd when reported
avidin = conditions: PDB complex binding affinities from literature; Kd when reported
1H62 A = conditions: PDB complex binding affinities from literature; Kd when reported
[7] = molecular target: hiv-1 protease (hiv-1 pr); conditions: PDB complex binding affinities from literature; Ki when reported
lectin = conditions: PDB complex binding affinities from literature; Kd when reported
[8] = molecular target: histone deacetylase-like protein (hdlp); conditions: PDB complex binding affinities from literature; IC50 when reported
[9] = molecular target: peroxisome proliferator activated receptor gamm; conditions: PDB complex binding affinities from literature; IC50 when reported
[10] = molecular target: peroxisome proliferator activated receptor alph; conditions: PDB complex binding affinities from literature; IC50 when reported
mta/sah nucleosidase = conditions: PDB complex binding affinities from literature; Ki when reported
[11] = molecular target: 5'-deoxy-5'-methylthioadenosine phosphorylase; conditions: PDB complex binding affinities from literature; Ki when reported
coagulation factor xa = conditions: PDB complex binding affinities from literature; Ki when reported
[12] = molecular target: oxygen-insensitive nad(p)h nitroreductase; conditions: PDB complex binding affinities from literature; Ki when reported
hydroxynitrile lyase = conditions: PDB complex binding affinities from literature; Ki when reported
[13] = molecular target: maltodextrin binding protein; conditions: PDB complex binding affinities from literature; Ki when reported
[14] = molecular target: trp rna-binding attenuation protein; conditions: PDB complex binding affinities from literature; Kd when reported
serum albumin = conditions: PDB complex binding affinities from literature; Kd when reported
Polycomb protein Scm = conditions: PDB complex binding affinities from literature; Kd when reported
[15] = molecular target: poly (adp-ribose) polymerase; conditions: PDB complex binding affinities from literature; IC50 when reported
[16] = molecular target: protein-tyrosine phosphatase 1b; conditions: PDB complex binding affinities from literature; Ki when reported
glutamate racemase = conditions: PDB complex binding affinities from literature; Ki when reported
alkaline phosphatase = conditions: PDB complex binding affinities from literature; Ki when reported
1H61 A = conditions: PDB complex binding affinities from literature; Kd when reported
[17] = molecular target: membrane lipoprotein tmpc; conditions: PDB complex binding affinities from literature; Kd when reported
1IL9 A = conditions: PDB complex binding affinities from literature; IC50 when reported
2-enoyl-coa hydratase = conditions: PDB complex binding affinities from literature; Ki when reported
[18] = molecular target: inhibitor of apoptosis protein 3; conditions: PDB complex binding affinities from literature; Kd when reported
[19] = molecular target: fk506 binding protein (fkbp); conditions: PDB complex binding affinities from literature; Kd when reported
carboxypeptidase a = conditions: PDB complex binding affinities from literature; Ki when reported

OC[C@H]1O[C@@](CO)(O[C@H]2O[C@H](CO)[C@@H](O)[C@H](O)[C@H]2O)[C@@H](O)[C@@H]1O
Kd (maltoporin): 15000 µM
Kd (sucrose-specific porin): 50000 µM

OC1C(O)C(O)C(O)C(O)C1O (centres undefined)
IC50 [1]: 5700 µM

O=c1ccn([C@H]2C[C@H](O)[C@@H](COP(=O)(O)OP(=O)(O)O)O2)c(=O)[nH]1
Ki [2]: 15 µM

O=P(O)(O)OC1[C@H](O)[C@H](O)C(O)[C@H](O)[C@H]1O (some centres undefined)
IC50 [1]: 1400 µM

NCCCCN
Kd [3]: 2 µM

CC(C)NCCCn1c(Sc2cc3c(cc2I)OCO3)nc2c(N)ncnc21
IC50 [4]: 0.05 µM

CN1CCN(c2ccc(C(=O)Nc3n[nH]c4c3CN(C(=O)Cc3cccs3)C4)cc2)CC1
IC50 [5]: 0.44 µM

O=P(O)(O)OC1[C@H](O)[C@H](OP(=O)(O)O)C(OP(=O)(O)O)[C@H](OP(=O)(O)O)[C@H]1O (some centres undefined)
Kd (bruton's tyrosine kinase): 0.087 µM
Kd (tyrosine kinase btk): 0.04 µM
Kd [6]: 0.043 µM

Nc1nc2c([nH]c(=O)n2[C@H]2C[C@H](O)[C@@H](CO)O2)c(=O)[nH]1
Kd (avidin): 117 µM

C[C@]12C=CC(=O)C=C1CC[C@@H]1[C@@H]2CC[C@]2(C)C(=O)CC[C@@H]12
Kd (1H62 A): 17 µM

CC[C@H](C)[C@H](NC(=O)[C@H](C(C)C)[C@@H](O)[C@H](O)[C@H](CC1CCCCC1)NC(=O)[C@H](Cc1cnc[nH]1)NC(=O)COc1cccc2ccccc12)C(=O)NCc1ccccn1
Ki [7]: < 0.001 µM

CC(=O)N[C@@H]1[C@@H](O)[C@H](O[C@@H]2O[C@H](CO)[C@H](O)[C@H](O)[C@H]2O)[C@@H](CO)O[C@@H]1O
Kd (lectin): 103 µM

CC(/C=C/C(=O)NO)=C\[C@@H](C)C(=O)c1ccc(N(C)C)cc1
IC50 [8]: 0.4 µM

CCO[C@@H](Cc1ccc(OCCc2ccc(OS(C)(=O)=O)cc2)cc1)C(=O)O
IC50 [9]: 0.2 µM
IC50 [10]: 1 µM

CSC[C@H]1N[C@@H](c2c[nH]c3c(N)ncnc23)[C@H](O)[C@@H]1O
Ki (mta/sah nucleosidase): 0.077 nM
Ki [11]: 0.001 µM

CC(=N)N1CC[C@H](Oc2ccc([C@H](Cc3ccc4ccc(C(=N)N)cc4c3)C(=O)O)cc2)C1
Ki (coagulation factor xa): 0.041 µM

O=C(O)c1ccccc1
Ki [12]: 100 µM

OC(O)(C(F)(F)F)C(F)(F)F
Ki (hydroxynitrile lyase): 550 µM

OC[C@H]1O[C@H](O[C@H]2[C@H](O)[C@@H](O)[C@@H](O[C@H]3[C@H](O)[C@@H](O)[C@@H](O)O[C@@H]3CO)O[C@@H]2CO)[C@H](O)[C@@H](O)[C@@H]1O
Ki [13]: 0.16 µM

CCCCC/C=C\C/C=C\C/C=C\C/C=C\CCCC(=O)O
Kd [14]: 4.4 µM
Kd (serum albumin): 0.091 µM

CN(C)CCCC[C@H](N)C(=O)O
Kd (Polycomb protein Scm): 10000 µM

Nc1ccc2c3c(cccc13)C(=O)NC2=O
IC50 [15]: 0.18 µM

O=C(O)C(=O)Nc1ccccc1C(=O)O
Ki [16]: 23 µM

NC(=O)CC[C@@H](N)C(=O)O
Ki (glutamate racemase): 50000 µM

O=C(O)CP(=O)(O)O
Ki (alkaline phosphatase): 5500 µM

C[C@]12C=CC(=O)C=C1CC[C@@H]1[C@@H]2C(=O)C[C@@]2(C)[C@H]1CC[C@]2(O)[C@@H](O)C=O
Kd (1H61 A): 13 µM

Nc1nc2c(ncn2[C@@H]2O[C@H](CO)[C@@H](O)[C@H]2O)c(=O)[nH]1
Kd [17]: 0.071 µM

OCC(Cl)(Cl)Cl
Ki (hydroxynitrile lyase): 390 µM

Cc1nc2c(=O)[nH]c(N)nc2o1
IC50 (1IL9 A): 400 µM

CC(=O)CC(=O)SCCNC(=O)CCNC(=O)[C@H](O)C(C)(C)COP(=O)(O)OP(=O)(O)OC[C@H]1O[C@@H](n2cnc3c(N)ncnc32)[C@H](O)[C@@H]1OP(=O)(O)O
Ki (2-enoyl-coa hydratase): 1.6 µM

CC[C@H](C)[C@H](NC(=O)[C@@H]1CCCN1C(=O)[C@@H](NC(=O)[C@H](C)N)C(C)C)C(=O)N[C@@H](C)C(=O)N[C@@H](CCC(N)=O)C(=O)N[C@@H](CCCCN)C(=O)N[C@@H](CO)C(=O)N[C@@H](CCC(=O)O)C(=O)O
Kd [18]: 0.43 µM

CCC(C)(C)C(=O)C(=O)N1CCC[C@H]1C(=O)OCCCc1cccnc1
Kd [19]: 1 µM

O=C(O)C[C@@H](Cc1ccccc1)C(=O)O
Ki (carboxypeptidase a): 0.45 µM
